Measurements as given in PubChem BioAssay AID651702 (NMMLSC, 2012).
This is a selection; strong and weak results do not stand in their true shares. Some tests of the compounds listed are not included; inactive here does not mean inactive elsewhere. The source made the active and inactive calls.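 How the source made its calls: active means inhibition above about 55% (limit read from the data); inconclusive means no clear call, values can overlap the other calls; inactive means the rest.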

Assay: LAMP-1 surface exposure blockers, TALL-104 cells – cell-based, flow cytometry, MLPCN library, primary screen (AID 651702)
Conditions: TALL-104 LAMP-1 surface exposure, at 10 µM, active compounds read high, cells stimulated with thapsigargin and PMA
In the case of O=C(NCC1(N2CCCCC2)CCCCC1)c1cccc(Cl)c1, the inhibition is reported as inactive: -2.9%.
For COc1ccc(Cl)cc1C(=O)NCC1(N(C)C)CCCCC1, the inhibition was inactive: -1.4%.
In the case of COc1cccc(C(=O)NCC2(N3CCCCC3)CCCCC2)c1, the inhibition is reported as inactive: -0.4%.
With COc1cc(C(=O)NCC2(N(C)C)CCCCC2)c([N+](=O)[O-])cc1OC the inhibition was inactive: -7.8%.
For CN(C)C1(CNC(=O)c2ccc(Br)cc2)CCCCC1, the inhibition was inactive: -0.1%.
In the case of CN(C)c1cccc(C(=O)NCC2(N(C)C)CCCCC2)c1, the inhibition is reported as inactive: -2.3%.
With O=C(OCCN1CCCC1)C(O)(c1ccccc1)c1ccccc1 the inhibition was inactive: 6.5%.
For CC(C)Oc1ccc(C(=O)NCC2(N(C)C)CCCCC2)cc1, the inhibition was inactive: 7.2%.
In the case of COc1ccc(Br)c(C(=O)NCC2(N3CCCCC3)CCCCC2)c1, the inhibition is reported as inactive: 0.5%.
With C=C(C)C#CC(O)(C(=O)OC1CCN(C)CC1)c1ccccc1 (stereo unspecified) the inhibition was inactive: 4.2%.
In the case of O=C(OC1CN2CCC1CC2)C(CO)(c1ccccc1)c1ccccc1 (stereo unspecified), the inhibition is reported as inactive: 5.3%.
In the case of Cc1ccc(C(=O)NCC2(N3CCCCC3)CCCCC2)cc1, the inhibition is reported as inactive: 15.6%.
For CC(C)N1C(=O)CC2(CCN(CCOC(=O)C(O)(c3ccccc3)c3ccccc3)CC2)C1=O, the inhibition was inactive: -1%.
With COc1cc(SC)ccc1C(=O)NCC1(N(C)C)CCCCC1 the inhibition was inactive: -9.5%.
With CCN(CC)CC(C)C(C)OC(=O)C(O)(c1ccccc1)c1ccccc1 (stereo unspecified) the inhibition was inactive: -1.4%.
For CN1[C@@H]2CC[C@H]1CC(OC(=O)C(O)(c1ccccc1)c1ccccc1)C2 (stereo partly specified), the inhibition was inactive: 2.7%.
In the case of O=C(NCC1(N2CCCCC2)CCCCC1)c1cc([N+](=O)[O-])ccc1Cl, the inhibition is reported as inactive: -1.6%.
In the case of O=C(NCC1(N2CCCCC2)CCCCC1)c1cccc(Br)c1, the inhibition is reported as inactive: -7.9%.
For CCN1CCCC(OC(=O)C2(O)c3ccccc3C=Cc3ccccc32)C1 (stereo unspecified), the inhibition was inactive: -3.8%.
With Cc1cc(C(=O)NCC2(N3CCCCC3)CCCCC2)ccc1[N+](=O)[O-] the inhibition was inactive: -5.1%.
In the case of COc1ccc(C(=O)NCC2(N(C)C)CCCCC2)cc1, the inhibition is reported as inactive: 2.1%.
For O=C(NCC1(N2CCCCC2)CCCCC1)c1cc(F)c(F)cc1Cl, the inhibition was inactive: 4%.
In the case of C=CCN1CCN(CCOC(=O)C(O)(c2ccccc2)c2ccccc2)CC1, the inhibition is reported as inactive: -0.6%.
With CN(C)c1ccc(C(=O)NCC2(N(C)C)CCCCC2)cc1 the inhibition was inactive: 15.1%.
For CN(C)C1CCCC1OC(=O)C(O)(c1ccccc1)c1ccccc1 (stereo unspecified), the inhibition was inactive: 0.5%.
For Cc1ccccc1C(=O)NCC1(N2CCCCC2)CCCCC1, the inhibition was inactive: 1.7%.
